These results are taken from ChEMBL document CHEMBL5576093, “Design, synthesis and evaluation of bioactivity of peptidomimetics based on chloroalkene dipeptide isosteres” (Bioorg Med Chem, 2024).

Sequences of proteins named here, by UniProt entry; tags and fusion partners are left off.
UniProt P61073, whole entry: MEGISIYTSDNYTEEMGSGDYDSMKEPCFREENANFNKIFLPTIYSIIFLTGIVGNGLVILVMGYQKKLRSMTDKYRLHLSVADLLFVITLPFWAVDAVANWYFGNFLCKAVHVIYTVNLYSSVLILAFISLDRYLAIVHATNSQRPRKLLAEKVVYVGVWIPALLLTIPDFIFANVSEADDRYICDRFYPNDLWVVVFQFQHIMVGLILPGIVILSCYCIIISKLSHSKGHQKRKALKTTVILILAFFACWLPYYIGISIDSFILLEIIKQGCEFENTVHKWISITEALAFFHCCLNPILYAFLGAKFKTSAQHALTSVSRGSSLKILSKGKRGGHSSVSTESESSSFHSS

In general, EC50 refers to the concentration giving half of the maximal effect.

The target in this test is C-X-C chemokine receptor type 4 (Homo sapiens, UniProt P61073). The test is described as follows: Antagonist activity at CXCR4 (unknown origin). The format is functional.

In turn, `N=C(N)NCCC[C@@H]1NC(=O)[C@H](CCCNC(=N)N)NC(=O)[C@@H](Cc2ccc(O)cc2)NC(=O)CNC(=O)[C@H](Cc2ccc3ccccc3c2)NC1=O` showed an EC50 of 68 nM.
